# Reference: PubChem BioAssay AID1454 (National Center for Advancing Translational Sciences (NCATS), 2008)
# The campaign covered roughly 130,000 compounds. About 550 (0.42%) were called active. All entries are inconclusive by the source's own rule. Clear calls are listed elsewhere. Calls follow the shape of the dose curve; as a rule, active = well fitted inhibition curve with a large enough effect; inconclusive = small, poorly fitted or top-dose-only effect, or effect the other way; inactive = flat fitted curve, though single readings scatter.
# Assay: qHTS Assay for Inhibitors of the ERK Signaling Pathway using a Homogeneous Screening Assay; Stimulation with EGF; also: nearly all actives have a fitted effect of over 55% in size
# Conditions: HEK293-V1b, EGF-stimulated phospho-ERK AlphaScreen
# Potency is read from the fitted curve at half-maximal effect.
row,SMILES,Potency
1,CS(=O)(=O)c1cc([N+](=O)[O-])c2no[n+]([O-])c2c1,inconclusive: 39.8 µM
2,CC(C)(C)C(=O)NC(Sc1ccccc1)C(Cl)(Cl)Cl (stereo not drawn),inconclusive: 5.62 µM
3,O=[N+]([O-])c1cc([N+](=O)[O-])c(CCNc2ccccc2)c([N+](=O)[O-])c1,inconclusive: 12.6 µM
